We go through five molecules from patent US20040038861A1, “Methods and compositions for normalizing lipid levels in mammalian tissues” (priority 2001, published 2004).

A word on the IC50: it is the point on the concentration scale where inhibition reaches its midpoint. Broadly, the Ki is the dissociation constant of the complex between target and ligand, obtained from inhibition or displacement. A high value points to lower affinity.

The subject of experiment [1] is soleus muscle. Kind of experiment: Lipid metabolites (free fatty acid, glycerol, triglyceride; enzymatic analysis) in isolated soleus muscle from normally fed rats. Format: cell-based, rat. The following applies: 1 h, 100 nM amylin or CGRP-1, 4.4 μM norepinephrine, 23.7 nM insulin, control 78±21.
The target in experiment [2] is T1, murine ramp 1/C1ins- receptor (murine, UniProt Q60755).
T1 sequence 1: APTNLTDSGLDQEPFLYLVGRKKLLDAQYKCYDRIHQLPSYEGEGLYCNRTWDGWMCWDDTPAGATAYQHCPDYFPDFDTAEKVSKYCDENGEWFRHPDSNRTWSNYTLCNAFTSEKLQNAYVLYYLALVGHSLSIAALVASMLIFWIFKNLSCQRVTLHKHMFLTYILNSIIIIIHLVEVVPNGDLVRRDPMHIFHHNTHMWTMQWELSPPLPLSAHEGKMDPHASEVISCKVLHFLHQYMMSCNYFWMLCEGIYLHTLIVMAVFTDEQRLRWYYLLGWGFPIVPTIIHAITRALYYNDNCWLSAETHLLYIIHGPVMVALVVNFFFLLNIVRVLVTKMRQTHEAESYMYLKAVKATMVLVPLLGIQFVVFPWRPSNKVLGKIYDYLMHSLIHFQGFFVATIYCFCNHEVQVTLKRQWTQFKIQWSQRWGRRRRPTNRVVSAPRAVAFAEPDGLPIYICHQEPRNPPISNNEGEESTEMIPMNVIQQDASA
T1 sequence 2: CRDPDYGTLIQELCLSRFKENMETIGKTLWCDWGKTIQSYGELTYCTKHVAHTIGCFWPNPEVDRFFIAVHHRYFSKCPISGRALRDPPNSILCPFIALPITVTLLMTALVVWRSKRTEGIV
Kind of experiment: displacement of 20 nM [^3H]amylin, L6 myoblasts co-transfected with murine ramp 1 and C1ins-. The source says:
(§1) Cells were then washed and bound radioactivity determined by liquid scintillation counting. […] Each point represents the mean±SEM of three independent myoblast transfections from an experiment repeated at least twice.

Experiment [3] deals with T1, murine ramp 1/C1ins- receptor. Kind of experiment: displacement of 20 nM [^3H]amylin, co-transfected L6 myoblasts; Cheng and Prusoff with Kd […].
Text: as §1
95% confidence intervals (nM) are bracketed.

rat CGRP-1: in experiment [1], the “intramuscular free fatty acid content” value worked out at 325 ± 56 nmol/g.
Consider CSNLSTCVLGKLSQELHKLQTYPRTNTGSGTP (ligand) [salmon calcitonin], for which the half-maximal inhibitory concentration (IC50) in experiment [2] was 1.9 nM.
In turn, ATQRLANFLVRSSNNLGPVLPPTNVGSNTY (C-terminal amide (NH2)) [^8,37rat amylin] displayed an IC50 in experiment [2] of 1270 nM. This molecule also came in with a Ki in experiment [3] of 399 nM.

B1: rat amylin (ligand)
peptide: KCNTATCATQRLANFLVRSSNNLGPVLPPTNVGSNTY
modifications: intra-molecular disulfide bond between the 2nd and 7th Cys residues; C-terminal amide (NH2)
The molecule B1 registered an IC50 in experiment [2] of 23 nM. The molecule also registered a Ki in experiment [3] of 7.4 nM.

B2: rat CGRP-1 (ligand)
peptide: SCNTATCVTHRLAGLLSRSGGVVKDNFVPTNVGSEAF
modifications: intra-molecular disulfide bond between the 2nd and 7th Cys residues; C-terminal amide (NH2)
Regarding B2, the 50% inhibitory concentration (IC50) in experiment [2] was determined as 63 nM.
